Source: ChEMBL document CHEMBL3880431, “Heme oxygenase inhibitors, screening methods for heme oxygenase inhibitors and methods of use of heme oxygenase inhibitors for antimicrobial therapy” (2013)

Assay: Lipophilicity, log P of the compound
Format: physicochemical
Conditions: octanol/water

`[O-][n+]1onc2c1c1no[n+]([O-])c1c1no[n+]([O-])c21` gave a logP of 0.64.
